Laboratory results as given in US20140100172A1.

The chains behind the UniProt entries cited, without tags or fusion partners.
UniProt P61073, whole entry: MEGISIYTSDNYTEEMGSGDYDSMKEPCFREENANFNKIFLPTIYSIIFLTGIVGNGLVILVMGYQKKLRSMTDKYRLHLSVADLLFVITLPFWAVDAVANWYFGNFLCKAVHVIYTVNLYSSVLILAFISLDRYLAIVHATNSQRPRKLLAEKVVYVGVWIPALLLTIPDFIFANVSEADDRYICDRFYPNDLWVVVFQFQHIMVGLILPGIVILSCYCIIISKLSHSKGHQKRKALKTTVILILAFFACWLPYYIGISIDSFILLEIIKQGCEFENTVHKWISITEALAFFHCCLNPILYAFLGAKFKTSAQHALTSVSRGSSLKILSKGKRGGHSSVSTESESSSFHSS

Molecular target: human chemokine receptor type 4 (CXCR4) (human) (UniProt P61073)
Experiment: competition with 125I-CPCR4 tracer on CXCR4-expressing cells

Row | IC50 [µM] | Substance
1 | 0.35 | Dap(FB)-8k, cyc[D-Tyr-Arg-Nal-Dap(FB)] (peptide)
2 | 0.14 | Dap(FP)-8k, cyc[D-Tyr-Arg-Nal-Dap(FP)] (peptide)
3 | 0.0087 | cyc[D-Tyr-(Me)D-Orn(FB)-Arg-Nal-Gly] (peptide)
4 | 0.029 | cyc[D-Tyr-Orn(Ac)-Arg-Nal-Gly] (peptide)
5 | 0.947 | cyc[D-Tyr-Orn(Ahx2)-Arg-Nal-Gly] (peptide)
6 | 0.227 | cyc[D-Tyr-Orn(Ahx3)-Arg-Nal-Gly] (peptide)
7 | 0.035 | cyc[D-Tyr-Orn(Am)-Arg-Nal-Gly] (peptide)
8 | 0.155 | cyc[D-Tyr-Orn(Bz)-Arg-Nal-Gly] (peptide)
9 | 0.035 | cyc[D-Tyr-Orn(FP)-Arg-Nal-Gly] (peptide)
10 | 0.105 | cyc[D-Tyr-Orn(Me)-Arg-Nal-Gly] (peptide)
11 | 0.078 | cyc[D-Tyr-Orn(Me, FB)-Arg-Nal-Gly] (peptide)
12 | 0.035 | cyc[Nal-Gly-D-Tyr-Cit-Arg] (peptide)
